The text below walks through data of ChEMBL document CHEMBL5726649, “Kinase inhibitors and methods of use” (2017).

Protein sequences, listed by entry. Tags and fused reporters are not part of them. Lines headed by an entry give the natural chain unless they say otherwise; changes in a name come on top.
UniProt P42336, whole entry: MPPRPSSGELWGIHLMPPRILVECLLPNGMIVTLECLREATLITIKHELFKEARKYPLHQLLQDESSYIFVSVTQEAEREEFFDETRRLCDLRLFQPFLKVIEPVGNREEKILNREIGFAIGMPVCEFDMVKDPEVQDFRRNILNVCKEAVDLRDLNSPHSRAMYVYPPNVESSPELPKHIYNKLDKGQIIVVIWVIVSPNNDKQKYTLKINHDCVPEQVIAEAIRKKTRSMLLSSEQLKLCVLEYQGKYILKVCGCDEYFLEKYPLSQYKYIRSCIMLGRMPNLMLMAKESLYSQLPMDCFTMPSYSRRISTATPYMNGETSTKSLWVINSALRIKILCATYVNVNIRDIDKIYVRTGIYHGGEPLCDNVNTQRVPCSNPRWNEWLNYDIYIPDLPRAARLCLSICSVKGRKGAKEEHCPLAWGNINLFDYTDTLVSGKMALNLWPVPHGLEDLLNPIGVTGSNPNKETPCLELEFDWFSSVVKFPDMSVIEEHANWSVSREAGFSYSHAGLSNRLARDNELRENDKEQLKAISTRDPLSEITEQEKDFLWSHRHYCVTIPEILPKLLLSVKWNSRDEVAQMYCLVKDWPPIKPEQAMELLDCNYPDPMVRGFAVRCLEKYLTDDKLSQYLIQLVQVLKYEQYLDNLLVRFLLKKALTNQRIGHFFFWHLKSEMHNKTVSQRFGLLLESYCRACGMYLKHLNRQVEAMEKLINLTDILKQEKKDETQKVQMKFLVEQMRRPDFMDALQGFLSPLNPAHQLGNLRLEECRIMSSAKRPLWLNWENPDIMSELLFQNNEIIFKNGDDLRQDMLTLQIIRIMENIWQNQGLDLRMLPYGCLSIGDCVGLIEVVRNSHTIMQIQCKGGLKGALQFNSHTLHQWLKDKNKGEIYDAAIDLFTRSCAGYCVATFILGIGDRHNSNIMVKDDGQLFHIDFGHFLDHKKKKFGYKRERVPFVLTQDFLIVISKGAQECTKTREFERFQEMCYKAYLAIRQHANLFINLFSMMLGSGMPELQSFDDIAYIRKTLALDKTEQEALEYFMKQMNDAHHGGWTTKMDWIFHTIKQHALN
UniProt P48736: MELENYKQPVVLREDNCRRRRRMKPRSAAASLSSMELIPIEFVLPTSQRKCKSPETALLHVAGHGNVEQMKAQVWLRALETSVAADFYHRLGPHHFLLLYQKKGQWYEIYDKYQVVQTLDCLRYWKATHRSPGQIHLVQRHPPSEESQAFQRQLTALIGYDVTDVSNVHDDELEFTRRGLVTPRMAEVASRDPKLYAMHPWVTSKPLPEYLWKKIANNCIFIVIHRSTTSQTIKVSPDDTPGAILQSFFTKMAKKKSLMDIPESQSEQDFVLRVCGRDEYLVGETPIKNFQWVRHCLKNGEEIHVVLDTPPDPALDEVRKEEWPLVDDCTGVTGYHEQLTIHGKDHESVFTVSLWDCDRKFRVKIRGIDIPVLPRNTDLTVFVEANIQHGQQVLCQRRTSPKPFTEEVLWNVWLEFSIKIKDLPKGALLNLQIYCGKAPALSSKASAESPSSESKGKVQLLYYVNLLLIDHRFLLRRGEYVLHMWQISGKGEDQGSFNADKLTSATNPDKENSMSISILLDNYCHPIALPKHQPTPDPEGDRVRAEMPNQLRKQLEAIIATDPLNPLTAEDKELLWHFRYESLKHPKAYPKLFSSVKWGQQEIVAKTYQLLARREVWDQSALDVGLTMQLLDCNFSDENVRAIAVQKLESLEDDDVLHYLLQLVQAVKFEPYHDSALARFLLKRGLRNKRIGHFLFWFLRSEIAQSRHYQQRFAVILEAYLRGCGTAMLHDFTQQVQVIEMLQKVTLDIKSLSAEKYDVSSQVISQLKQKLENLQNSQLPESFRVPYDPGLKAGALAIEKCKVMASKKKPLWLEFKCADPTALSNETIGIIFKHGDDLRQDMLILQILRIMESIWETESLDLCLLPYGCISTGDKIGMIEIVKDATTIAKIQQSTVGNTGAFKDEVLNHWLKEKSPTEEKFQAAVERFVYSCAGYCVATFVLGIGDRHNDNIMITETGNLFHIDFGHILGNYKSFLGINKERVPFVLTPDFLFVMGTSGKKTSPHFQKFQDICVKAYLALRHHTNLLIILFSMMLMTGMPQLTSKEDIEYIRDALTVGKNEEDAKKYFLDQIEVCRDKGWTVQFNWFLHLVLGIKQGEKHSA

Assay [1] concerns the target Phosphatidylinositol 4,5-bisphosphate 3-kinase catalytic subunit alpha isoform (Homo sapiens, UniProt P42336).
Assay [2] addresses Phosphatidylinositol 4,5-bisphosphate 3-kinase catalytic subunit gamma isoform (Homo sapiens, UniProt P48736).

SMILES strings stand for the structures.

For orientation: IC50 means the midpoint of a concentration-inhibition curve. Molecule `CC(C)n1nc(-c2cc3c(Cl)c(O)ccc3[nH]2)c2c(N)ncnc21` showed a half-inhibitory concentration (IC50) in assay [1] of more than 500 nM. `COc1cccc2cc(-c3nn(C(C)C)c4ncnc(N)c34)[nH]c12`: the IC50 in assay [2] and in assay [1] was more than 500 nM each time.
